Target: recombinant form of Glutaminase 1 (GAC) (Homo sapiens, UniProt O94925)
Assay: Recombinant enzyme assay (GAC, GDH-coupled absorbance, no preincubation)
Format: biochemical
Conditions: read-out: GAC Delta N2 IC50 no preinc
Method: Enzymatic reaction was started with the addition of 50 μL of enzyme solution (50 mM Tris-HCl pH 8.0, 0.2 mM EDTA, 150 mM K2HPO4, 0.1 mg/ml BSA, 1 mM DTT, 10 ppm antifoam, 4 units/ml GDH, 4 mM adenosine diphosphate, and 4 nM GAC) and read in a Molecular Devices M5 plate reader at 20° C. The plate reader was configured to read absorbance (λ=340 nm) in kinetic mode for 15 minutes. Data was recorded as milli-absorbance units per minute and slopes were compared to a control compound and a DMSO-only control on the same plate. Compounds with slopes less than the DMSO control were considered inhibitors and plate variability was assessed using the control compound.

By UniProt entry, the sequences of proteins in these tests, tags left out. Residues count along the entry.
UniProt O94925, 55-669 limits assumed: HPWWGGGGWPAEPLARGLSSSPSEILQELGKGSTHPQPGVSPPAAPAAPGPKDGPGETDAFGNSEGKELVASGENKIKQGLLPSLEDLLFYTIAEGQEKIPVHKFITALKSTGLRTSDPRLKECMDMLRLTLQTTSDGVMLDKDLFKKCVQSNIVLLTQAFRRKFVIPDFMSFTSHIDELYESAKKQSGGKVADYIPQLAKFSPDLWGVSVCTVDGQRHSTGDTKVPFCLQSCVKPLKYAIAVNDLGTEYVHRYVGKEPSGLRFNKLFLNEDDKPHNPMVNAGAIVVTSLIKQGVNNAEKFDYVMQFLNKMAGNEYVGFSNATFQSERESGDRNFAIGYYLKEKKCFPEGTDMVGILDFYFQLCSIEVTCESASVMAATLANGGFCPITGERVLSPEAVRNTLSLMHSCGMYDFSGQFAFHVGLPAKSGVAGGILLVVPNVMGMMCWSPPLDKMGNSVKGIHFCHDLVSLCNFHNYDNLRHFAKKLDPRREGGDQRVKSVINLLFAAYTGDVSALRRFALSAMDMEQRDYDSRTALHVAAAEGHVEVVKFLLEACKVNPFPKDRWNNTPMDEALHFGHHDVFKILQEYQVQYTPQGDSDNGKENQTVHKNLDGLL

Row | SMILES | IC50 [nM]
1 | O=C(C[C@@H](O)c1ccccc1)Nc1nnc(CCSCCc2nnc(NC(=O)C[C@@H](O)C3CCCCC3)s2)s1 [Compound 126] | 5800
2 | O=C(Cc1cccc(OCCO)c1)Nc1nnc(CCSCCc2nnc(NC(=O)Cc3cccc(OCCO)c3)s2)s1 [Compound 236] | 200
